For one experiment, the target named is HDAC4 (Homo sapiens, UniProt P56524). The experiment can be described thus: HDAC fluorometric activity assay, HDAC4. To be noted: for HDAC4 inhibitory activity in initial screen compared to SAHA: tested at 40 μM, SAHA as reference.
In the next experiment the target is HDAC6 (Homo sapiens, UniProt Q9UBN7). The experiment is described as follows: HDAC fluorometric activity assay, HDAC6. Particulars: read-out: IC50 HDAC6 (Class IIb); Table 2; mean of three independent experiments.
Another experiment concerns the target HDAC5 (Homo sapiens, UniProt Q9UQL6). The experiment is described as follows: HDAC fluorometric activity assay, HDAC5. To be noted: read-out: IC50 HDAC5 (Class IIa); Table 2; mean of three independent experiments.
For the next experiment, the target named is HDAC7 (Homo sapiens, UniProt Q8WUI4). The experiment is described as follows: HDAC fluorometric activity assay, HDAC7. Particulars: read-out: IC50 HDAC7 (Class IIa); Table 2; mean of three independent experiments.
Another experiment deals with HDAC9 (Homo sapiens, UniProt Q9UKV0). The experiment is described as follows: HDAC fluorometric activity assay, HDAC9. Particulars: read-out: IC50 HDAC9 (Class IIa); Table 2; mean of three independent experiments.
[1] abbreviates: read-out: IC50 HDAC4 (Class IIa), Table 2, mean of three independent experiments.

Amino acid sequences for entries named in this document (tags omitted).
UniProt P56524, whole entry: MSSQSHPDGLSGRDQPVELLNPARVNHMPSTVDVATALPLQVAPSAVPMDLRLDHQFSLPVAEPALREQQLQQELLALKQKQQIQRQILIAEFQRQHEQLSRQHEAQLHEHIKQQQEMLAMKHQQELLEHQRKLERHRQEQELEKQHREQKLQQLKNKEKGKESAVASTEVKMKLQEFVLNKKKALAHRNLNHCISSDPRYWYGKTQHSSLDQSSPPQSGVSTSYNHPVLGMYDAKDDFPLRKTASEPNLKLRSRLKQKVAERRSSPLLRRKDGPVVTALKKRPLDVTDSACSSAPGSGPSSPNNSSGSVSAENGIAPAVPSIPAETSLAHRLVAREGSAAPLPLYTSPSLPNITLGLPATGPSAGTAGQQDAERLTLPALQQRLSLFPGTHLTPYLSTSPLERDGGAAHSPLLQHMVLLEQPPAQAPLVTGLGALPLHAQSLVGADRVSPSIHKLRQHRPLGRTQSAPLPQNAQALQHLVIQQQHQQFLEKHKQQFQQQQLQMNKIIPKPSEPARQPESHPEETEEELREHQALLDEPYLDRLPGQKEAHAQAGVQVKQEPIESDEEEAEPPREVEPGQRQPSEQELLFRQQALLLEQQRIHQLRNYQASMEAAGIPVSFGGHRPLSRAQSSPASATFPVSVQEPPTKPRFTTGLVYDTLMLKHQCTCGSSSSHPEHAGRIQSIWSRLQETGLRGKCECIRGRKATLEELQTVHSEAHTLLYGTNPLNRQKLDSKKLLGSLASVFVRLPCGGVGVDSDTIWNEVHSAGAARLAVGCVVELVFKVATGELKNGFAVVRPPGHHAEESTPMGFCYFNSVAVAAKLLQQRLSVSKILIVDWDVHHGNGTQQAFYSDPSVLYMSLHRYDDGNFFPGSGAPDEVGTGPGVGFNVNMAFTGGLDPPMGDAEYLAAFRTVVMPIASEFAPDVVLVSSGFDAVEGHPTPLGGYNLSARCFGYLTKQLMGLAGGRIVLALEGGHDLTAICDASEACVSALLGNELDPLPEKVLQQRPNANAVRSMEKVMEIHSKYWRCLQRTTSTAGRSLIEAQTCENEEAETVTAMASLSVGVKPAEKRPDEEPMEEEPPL
UniProt Q9UBN7, whole entry: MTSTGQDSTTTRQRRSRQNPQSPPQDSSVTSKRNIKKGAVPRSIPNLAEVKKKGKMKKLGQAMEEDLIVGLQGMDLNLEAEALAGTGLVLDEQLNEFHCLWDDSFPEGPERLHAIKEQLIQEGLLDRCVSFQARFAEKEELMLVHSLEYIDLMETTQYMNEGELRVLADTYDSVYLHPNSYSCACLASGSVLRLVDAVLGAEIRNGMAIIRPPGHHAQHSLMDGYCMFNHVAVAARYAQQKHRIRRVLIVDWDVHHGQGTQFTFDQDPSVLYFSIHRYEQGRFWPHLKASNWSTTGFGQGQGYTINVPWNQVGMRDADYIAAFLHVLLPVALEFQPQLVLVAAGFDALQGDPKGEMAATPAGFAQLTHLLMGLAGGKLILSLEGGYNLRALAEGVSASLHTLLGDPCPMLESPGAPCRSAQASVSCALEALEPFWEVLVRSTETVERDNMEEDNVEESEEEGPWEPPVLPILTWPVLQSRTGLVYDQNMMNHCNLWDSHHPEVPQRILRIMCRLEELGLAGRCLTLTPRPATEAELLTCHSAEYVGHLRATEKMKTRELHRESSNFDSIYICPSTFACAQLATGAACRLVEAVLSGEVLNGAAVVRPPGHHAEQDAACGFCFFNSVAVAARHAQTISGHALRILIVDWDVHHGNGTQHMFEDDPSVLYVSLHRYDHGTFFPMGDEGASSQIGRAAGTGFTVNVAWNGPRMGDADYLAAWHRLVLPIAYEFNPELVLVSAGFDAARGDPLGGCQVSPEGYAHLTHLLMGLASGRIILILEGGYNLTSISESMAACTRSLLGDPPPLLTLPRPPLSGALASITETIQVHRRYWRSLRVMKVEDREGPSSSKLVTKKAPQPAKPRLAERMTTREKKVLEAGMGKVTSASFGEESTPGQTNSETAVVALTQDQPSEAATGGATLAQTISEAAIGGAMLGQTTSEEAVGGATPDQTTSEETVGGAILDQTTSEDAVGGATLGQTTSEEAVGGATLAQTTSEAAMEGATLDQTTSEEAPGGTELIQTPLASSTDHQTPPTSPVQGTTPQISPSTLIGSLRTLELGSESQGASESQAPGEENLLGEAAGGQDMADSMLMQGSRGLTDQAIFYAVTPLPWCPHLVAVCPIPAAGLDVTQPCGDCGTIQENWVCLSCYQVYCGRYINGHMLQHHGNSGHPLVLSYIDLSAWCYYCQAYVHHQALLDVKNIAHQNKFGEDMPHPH
UniProt Q9UQL6, whole entry: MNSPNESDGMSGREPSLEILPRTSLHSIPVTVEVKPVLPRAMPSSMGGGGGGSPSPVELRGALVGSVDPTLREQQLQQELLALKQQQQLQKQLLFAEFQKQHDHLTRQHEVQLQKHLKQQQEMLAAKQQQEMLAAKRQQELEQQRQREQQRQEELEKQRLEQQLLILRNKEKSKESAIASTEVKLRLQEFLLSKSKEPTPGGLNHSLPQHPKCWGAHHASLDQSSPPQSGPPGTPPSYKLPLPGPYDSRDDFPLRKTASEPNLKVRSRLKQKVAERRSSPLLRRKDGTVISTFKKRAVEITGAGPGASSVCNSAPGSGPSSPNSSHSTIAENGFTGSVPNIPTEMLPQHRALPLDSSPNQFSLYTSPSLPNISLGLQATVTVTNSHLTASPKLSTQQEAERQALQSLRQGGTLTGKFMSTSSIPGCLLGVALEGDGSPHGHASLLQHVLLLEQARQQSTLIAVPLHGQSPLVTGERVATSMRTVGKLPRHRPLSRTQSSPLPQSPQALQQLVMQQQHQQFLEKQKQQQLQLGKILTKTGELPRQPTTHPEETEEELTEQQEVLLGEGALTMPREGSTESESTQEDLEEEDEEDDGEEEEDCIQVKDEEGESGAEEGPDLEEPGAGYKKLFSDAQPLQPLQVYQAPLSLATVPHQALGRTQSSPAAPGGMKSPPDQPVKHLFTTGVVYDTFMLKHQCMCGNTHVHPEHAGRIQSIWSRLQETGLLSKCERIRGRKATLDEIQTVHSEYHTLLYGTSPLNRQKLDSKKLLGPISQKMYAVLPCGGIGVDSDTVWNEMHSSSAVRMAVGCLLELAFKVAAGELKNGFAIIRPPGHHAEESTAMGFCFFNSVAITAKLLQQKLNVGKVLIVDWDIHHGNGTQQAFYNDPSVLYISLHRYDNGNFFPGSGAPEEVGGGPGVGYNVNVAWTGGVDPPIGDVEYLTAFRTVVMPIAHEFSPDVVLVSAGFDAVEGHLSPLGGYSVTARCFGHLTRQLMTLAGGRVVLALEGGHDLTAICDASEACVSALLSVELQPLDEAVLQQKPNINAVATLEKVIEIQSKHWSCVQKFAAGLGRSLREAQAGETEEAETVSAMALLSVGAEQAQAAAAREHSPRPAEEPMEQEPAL
UniProt Q8WUI4, whole entry: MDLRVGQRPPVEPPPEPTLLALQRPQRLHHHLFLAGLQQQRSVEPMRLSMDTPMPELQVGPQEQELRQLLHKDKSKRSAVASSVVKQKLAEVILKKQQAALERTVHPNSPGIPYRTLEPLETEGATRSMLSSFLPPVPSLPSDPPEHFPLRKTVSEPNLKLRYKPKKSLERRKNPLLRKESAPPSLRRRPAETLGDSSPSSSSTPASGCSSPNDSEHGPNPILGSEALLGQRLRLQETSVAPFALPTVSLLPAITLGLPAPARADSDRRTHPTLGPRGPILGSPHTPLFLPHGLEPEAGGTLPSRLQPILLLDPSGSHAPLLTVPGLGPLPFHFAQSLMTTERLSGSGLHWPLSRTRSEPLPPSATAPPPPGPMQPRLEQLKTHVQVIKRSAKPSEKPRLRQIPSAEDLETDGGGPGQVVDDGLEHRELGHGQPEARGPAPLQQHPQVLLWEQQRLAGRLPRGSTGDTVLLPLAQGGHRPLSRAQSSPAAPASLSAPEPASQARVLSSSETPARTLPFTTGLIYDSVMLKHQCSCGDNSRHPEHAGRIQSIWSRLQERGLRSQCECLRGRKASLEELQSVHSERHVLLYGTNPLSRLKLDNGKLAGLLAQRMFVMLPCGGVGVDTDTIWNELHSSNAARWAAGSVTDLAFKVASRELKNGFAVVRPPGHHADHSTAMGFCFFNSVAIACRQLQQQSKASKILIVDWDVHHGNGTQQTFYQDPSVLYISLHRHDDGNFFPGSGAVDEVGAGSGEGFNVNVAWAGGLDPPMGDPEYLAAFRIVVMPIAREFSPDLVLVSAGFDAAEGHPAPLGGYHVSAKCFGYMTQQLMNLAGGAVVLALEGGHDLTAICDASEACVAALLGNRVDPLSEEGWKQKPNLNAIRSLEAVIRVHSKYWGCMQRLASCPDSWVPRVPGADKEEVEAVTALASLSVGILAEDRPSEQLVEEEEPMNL
UniProt Q9UKV0, whole entry: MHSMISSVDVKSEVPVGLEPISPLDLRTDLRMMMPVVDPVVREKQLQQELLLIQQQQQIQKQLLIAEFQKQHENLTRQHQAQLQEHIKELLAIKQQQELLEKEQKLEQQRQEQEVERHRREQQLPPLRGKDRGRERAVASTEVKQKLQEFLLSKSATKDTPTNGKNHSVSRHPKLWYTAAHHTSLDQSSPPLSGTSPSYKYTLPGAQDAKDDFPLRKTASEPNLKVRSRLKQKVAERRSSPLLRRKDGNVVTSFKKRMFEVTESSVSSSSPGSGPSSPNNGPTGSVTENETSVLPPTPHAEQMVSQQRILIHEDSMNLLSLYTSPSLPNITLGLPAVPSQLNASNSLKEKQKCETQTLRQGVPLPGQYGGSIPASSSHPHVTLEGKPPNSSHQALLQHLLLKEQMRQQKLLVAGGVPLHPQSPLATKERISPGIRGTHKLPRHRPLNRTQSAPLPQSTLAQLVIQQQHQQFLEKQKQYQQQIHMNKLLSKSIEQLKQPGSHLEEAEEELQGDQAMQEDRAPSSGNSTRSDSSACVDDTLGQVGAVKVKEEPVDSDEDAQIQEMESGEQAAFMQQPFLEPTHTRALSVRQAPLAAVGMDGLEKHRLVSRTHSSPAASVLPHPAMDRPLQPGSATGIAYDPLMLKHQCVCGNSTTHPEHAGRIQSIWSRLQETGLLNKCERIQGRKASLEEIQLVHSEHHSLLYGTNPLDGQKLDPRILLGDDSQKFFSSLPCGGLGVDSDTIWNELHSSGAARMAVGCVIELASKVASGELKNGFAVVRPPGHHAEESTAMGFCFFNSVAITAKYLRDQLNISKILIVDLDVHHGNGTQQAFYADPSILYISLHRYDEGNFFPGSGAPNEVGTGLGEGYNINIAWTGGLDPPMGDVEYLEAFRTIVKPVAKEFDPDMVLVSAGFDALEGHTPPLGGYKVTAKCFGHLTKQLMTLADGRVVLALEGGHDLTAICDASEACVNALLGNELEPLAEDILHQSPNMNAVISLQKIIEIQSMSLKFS

Each structure is given as a SMILES string. Read-outs that look alike come from different tables or passages of the source.

`CC(Cc1ccc(O)c(O)c1)C(C)Cc1ccc(O)c(O)c1` (centres unmarked): the “HDAC4 inhibitory activity compared to SAHA (in words)” value at HDAC4 (IC50 determination) was “moderate compared to SAHA”. The IC50 on HDAC4 (setting [1]) is 24.7 µM; at HDAC6, above 40 µM; at HDAC5, 23.4 µM; on HDAC7, above 40 µM; on HDAC9 it was 0.58 µM. The “HDAC4 inhibitory activity in initial screen compared to SAHA” value at HDAC4 is “significantly higher inhibitory activities”.
With `CN(Cc1cnc2nc(N)nc(N)c2n1)c1ccc(C(=O)NC(CCP(=O)(O)O)P(=O)(O)O)cc1` (centres unmarked), the “HDAC4 inhibitory activity in initial screen compared to SAHA” value on HDAC4 is given as “significantly higher inhibitory activities”.
As to `NC(Cc1cc(O)c(O)c(S(=O)(=O)c2ccccc2)c1)C(=O)O` (centres unmarked), the IC50 is 14.9 µM on HDAC4 (setting [1]); 14.9 µM at HDAC4 (read-out: IC50 of HDAC4 inhibitory activity, Table 1, Boc-Lys(TFA)-AMC 10 μM substrate); above 40 µM at HDAC6; 2.94 µM at HDAC5; above 40 µM at HDAC7; 12.9 µM at HDAC9. The “HDAC4 inhibitory activity in initial screen compared to SAHA” value on HDAC4 is reported as “significantly higher inhibitory activities”.
As for `Cc1cc2c(C(C)C)c(O)c(O)cc2c(O)c1-c1c(C)cc2c(C(C)C)c(O)c(O)cc2c1O`, the half-maximal inhibitory concentration (IC50) at HDAC4 (setting [1]) is 4.47 µM; on HDAC6, above 40 µM; at HDAC7, above 40 µM; on HDAC9 it was 7.14 µM. Moreover, on HDAC4, the “HDAC4 inhibitory activity in initial screen compared to SAHA” value was “significantly higher inhibitory activities”.

As usually defined, the IC50 is the concentration at which inhibition is half-maximal.
